The target of assay [1] is Bacteroids fragilis O-GlcNAcase (Bacteroides fragilis, UniProt Q5L8V6). Put plainly: Michaelis-Menten/Lineweaver-Burk kinetic inhibition of O-GlcNAcase with 4MU-NAG substrate. The class given is biochemical. Particulars: Table 1.
The target of assay [2] is Human O-GlcNAcase (Homo sapiens, UniProt O60502). Kind of assay: Inhibition of human O-GlcNAcase. Particulars: Human O-GlcNAcase over human HEX B; Table 2. The class given is biochemical. As to the method:
Human O-GlcNAcase was also prepared and tested according to the procedures described in Gao et al., J. Biol. Chem. 2001, 276, 9838-9845 and Macauley et al., J. Am. Chem. Soc. 2005, 127, 17202-17203.

By UniProt entry, the sequences of proteins in these tests, tags left out. Residues count along the entry.
UniProt Q5L8V6, 1-739: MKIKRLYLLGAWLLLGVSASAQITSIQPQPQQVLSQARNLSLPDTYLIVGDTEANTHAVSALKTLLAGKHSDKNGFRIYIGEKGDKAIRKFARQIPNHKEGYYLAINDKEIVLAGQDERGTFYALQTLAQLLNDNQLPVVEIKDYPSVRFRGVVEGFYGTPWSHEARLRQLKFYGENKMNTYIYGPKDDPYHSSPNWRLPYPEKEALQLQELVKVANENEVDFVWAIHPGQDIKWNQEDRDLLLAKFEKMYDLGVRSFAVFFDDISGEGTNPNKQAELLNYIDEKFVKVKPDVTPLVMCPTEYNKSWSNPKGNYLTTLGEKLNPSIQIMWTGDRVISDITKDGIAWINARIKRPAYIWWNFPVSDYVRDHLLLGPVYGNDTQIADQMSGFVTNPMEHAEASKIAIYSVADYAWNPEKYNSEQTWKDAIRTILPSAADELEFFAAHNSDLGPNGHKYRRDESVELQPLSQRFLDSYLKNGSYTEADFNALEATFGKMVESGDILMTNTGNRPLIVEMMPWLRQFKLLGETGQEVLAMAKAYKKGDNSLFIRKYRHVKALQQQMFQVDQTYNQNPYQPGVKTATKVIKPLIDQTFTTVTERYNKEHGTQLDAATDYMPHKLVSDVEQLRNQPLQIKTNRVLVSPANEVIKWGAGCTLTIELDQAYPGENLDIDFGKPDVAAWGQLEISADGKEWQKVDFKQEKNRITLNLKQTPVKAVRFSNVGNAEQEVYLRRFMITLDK
UniProt O60502, whole entry: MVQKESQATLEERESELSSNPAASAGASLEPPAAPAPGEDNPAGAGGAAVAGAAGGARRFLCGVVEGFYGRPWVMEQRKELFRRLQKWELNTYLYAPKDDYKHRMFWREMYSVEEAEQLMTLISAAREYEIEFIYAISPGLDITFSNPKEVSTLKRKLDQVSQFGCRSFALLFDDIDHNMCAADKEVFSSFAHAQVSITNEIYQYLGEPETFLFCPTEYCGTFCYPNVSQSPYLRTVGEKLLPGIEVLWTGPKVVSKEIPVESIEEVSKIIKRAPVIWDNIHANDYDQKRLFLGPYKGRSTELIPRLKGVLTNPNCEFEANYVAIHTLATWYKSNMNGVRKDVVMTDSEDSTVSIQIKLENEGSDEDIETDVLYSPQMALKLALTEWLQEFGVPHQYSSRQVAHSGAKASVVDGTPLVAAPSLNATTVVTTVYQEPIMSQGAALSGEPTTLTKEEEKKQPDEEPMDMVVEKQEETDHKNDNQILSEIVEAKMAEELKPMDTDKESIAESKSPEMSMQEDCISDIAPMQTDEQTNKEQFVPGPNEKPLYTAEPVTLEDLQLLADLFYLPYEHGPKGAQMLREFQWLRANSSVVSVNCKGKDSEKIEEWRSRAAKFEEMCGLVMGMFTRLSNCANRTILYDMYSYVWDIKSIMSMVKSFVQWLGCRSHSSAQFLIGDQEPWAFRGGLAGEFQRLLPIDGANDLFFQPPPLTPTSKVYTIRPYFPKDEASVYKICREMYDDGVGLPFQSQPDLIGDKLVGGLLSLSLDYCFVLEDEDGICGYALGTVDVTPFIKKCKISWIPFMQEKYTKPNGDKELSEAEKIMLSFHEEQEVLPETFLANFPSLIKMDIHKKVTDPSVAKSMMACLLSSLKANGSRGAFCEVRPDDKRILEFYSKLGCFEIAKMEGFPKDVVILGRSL

Assay [3] relates to BV2 cells. Put plainly: GM2 ganglioside level in BV2 cells by high performance thin-layer chromatography. As to conditions: 200 nM, 10 days, HPTLC. The procedure:
Additionally, BV2 cells were treated with Compound 3 (200 nM), Compound ix (200 nM), or PUGNAc (200 nM) for 10 days. Glycosphingolipids (e.g., GM2) were extracted from the treated cells with chloroform/methanol and the ganglioside levels were determined by high performance thin-layer chromatography.

Consider `CC(=O)N[C@H]1CN[C@H](CO)[C@@H](O)[C@@H]1O`, for which the values for the Selectivity (KI O-GlcNAcase/KI HEX) in assay [1] (Bacteroids fragilis O-GlcNAcase over human HEX B) and in assay [2] were 12 and 43, respectively. The inhibitory constant (Ki) in assay [1] (read-out: KI of O-GlcNAcase, Bacteroids fragilis O-GlcNAcase) amounted to 6.7 µM. Besides, in assay [3], the “GM2 level in treated cells” value is reported as “only modestly increased”.

In general, Ki refers to a measure of affinity in units of concentration, obtained from inhibition or displacement.

The record behind these values is US8466291B2, “1,5-dideoxy-1,5-imino-D-glucitol compounds” (Academia Sinica, priority 2008, dated 2013).
